Data: ChEMBL document CHEMBL1131298 (J Med Chem, 1998)

Assay: Cytotoxicity was evaluated against LS174T-stCPG2(Q)3-expressing cell clone
Assay type: functional, Homo sapiens
In short: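 LS174T colon cells stably transfected with surface-tethered mutant CPG2 (stCPG2(Q)3) plasmid; 2 × 10^6 cells seeded, confluent at 48 h. Compound added from DMSO stock in full medium, a similar dose re-added after 1 h, then 20 h more. Cells reseeded in quadruplicate at ~2 × 10^3/well, grown to control confluence; sulforhodamine-B at 590 nm, IC50 by interpolation.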

Structure (SMILES): Oc1ccc(N(CCCl)CCCl)cc1
- IC50: 3780 nM

Structure (SMILES): Nc1ccc(N(CCCl)CCCl)cc1
- IC50: 340 nM
